{"source": "patent US11065343B2", "about": "“Compound bearing beta-galactoside-introduced self-immolative linker” (IntoCell Inc., priority 2016, dated 2021)", "tested_on": "SKBR-3 cancer cell line", "test": "In vitro cytotoxicity of antibody-drug conjugates (MTT)", "type": "cell-based", "settings": "SKBR-3, 96 hours", "experimental": "SKBR-3 cancer cell line was seeding to a 96-well plate in 2,000 to 8,000 per well and was cultured for 24 hours. Ab-17 and Ab-18 obtained in Test Example 6 were treated with a serial dilution in 1/4 from 50 nM to 0.0008 nM, and control drug T-DM1 (Roche CAS No. 1018448-65-1) was treated with a serial dilution in 1/4 from 50 nM to 0.0008 nM. Live cells after 96 hours were quantified by dissolving MTT dye in a buffer solution to be 5 mg/mL and then adding it in 1/10 to each well of the plate. Formazan formed by a reduction of MTT dye with mitochondria oxidoreductase in the cell was dissolved in DMSO, and a quantification was conducted by measuring an absorbance at 550 nm, and the results were shown in Table 3 below."}
{"substance": "TDM-1", "values": [{"measurement": "IC50", "value": 0.021, "unit": "nM"}]}
